Experimental data reported in patent publication US8445542B2, “Methods of accelerating muscle growth, decreasing fat deposits and improving feed efficiency in livestock animals” (Bridge Pharma, Inc., priority 2006, dated 2013).

Columns and labels:
[1] = system: adrenergic beta-receptors; assay: Receptor binding studies, adrenergic beta-receptors
Description: Interesting and important advantages of receptor selectivity by RR-ractopamine were found.

[2] = system: Airway smooth muscle tissues; assay: Airway smooth muscle contracted by carbachol; settings: ongoing studies
Description: Airway smooth muscle tissues were contracted by carbachol. The inhibitory effects of isomers, enantiomeric pairs and a racemic mixture of ractopamine are being investigated.
Test results from these functional studies verify and support the results from the receptor binding studies.

RR-4-hydroxy-a-[[[3-(4-hydroxyphenyl)-1-methylpropyl]amino]methyl]benzenemethanol [RR-ractopamine]
affinity for adrenergic beta-receptors, compared among the ractopamine forms [1]: highest affinity | airway smooth muscle relaxing activity [2]: potent airway smooth muscle relaxing activity
